The record followed here is US20180127464A1, “NOVEL EPHA4 INHIBITORS TARGETING ITS LIGAND BINDING DOMAIN” (Sanford-Burnham Medical Research Institute, priority 2015, published 2018).

By UniProt entry, the sequences of proteins in these tests, tags left out. Residues count along the entry.
UniProt P54764, 30-209 limits assumed: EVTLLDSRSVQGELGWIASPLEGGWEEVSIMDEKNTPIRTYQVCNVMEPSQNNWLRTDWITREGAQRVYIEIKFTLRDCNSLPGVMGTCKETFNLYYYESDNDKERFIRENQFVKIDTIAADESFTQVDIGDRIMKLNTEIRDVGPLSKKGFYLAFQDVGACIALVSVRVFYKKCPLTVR

Structures are written as SMILES.

This assay deals with EphA4 LBD (Homo sapiens, UniProt P54764). Put plainly: Fluorescence polarization assay (FPA), displacement of FITC-labeled KYL peptide. In kind it is binding. As to conditions: EphA4 LBD, displacement of FITC-KYL peptide, PBS pH 7.2; read-out: Ki by FPA. How it is done: Fluorescence Polarization Assay (FPA):
The EphA4 binding KYL peptide ([…], Murai et al. Mol. Cell. Neurosci. 2003, 24:1000-1011) was labeled at the N-terminus with fluorescein isothiocyanate (FITC) and purified by HPLC. For competitive binding assays, 1 μL of 200 μM EphA4 LBD was pre-incubated with the tested compounds at various concentrations in 98 μL PBS (pH=7.2) in 96-well black plates at room temperature for 10 min, and then 1 μL of 500 μM FITC labeled EphA4 peptide was added to produce a final volume of 100 μL. The KYL and DMSO were incubated in each assay as positive and negative controls, respectively. After 30 min of incubation at room temperature, the polarization values in millipolarization units were measured at excitation/emission wavelengths of 480/535 nm with a multilabel plate reader (PerkinElmer, Waltham, Mass., USA). Ki value was determined by fitting the experimental data to a Sigmoidal dose-response (variable slope) nonlinear regression model (GraphPad Prism version 5.01 for Windows, GraphPad Software, San Diego, Calif., USA).
(B) EphA4-LBD was dissolved in 50 mM potassium phosphate buffer (pH 6.5), containing 100 mM NaCl. ITC were measured.

Take `COc1ccc2[nH]cc(CCNC(=O)[C@H](Cc3ccncc3)NC(=O)[C@H](Cc3ccc(Cl)cc3)NC(=O)[C@H](Cc3c[nH]c4ccc(O)cc34)NC(=O)CCCN)c2c1` [Compound 7, 4-amino-N-((S)-1-((S)-3-(4-chlorophenyl)-1-((S)-1-(2-(5-methoxy-1H-indol-3-yl)ethylamino)-1-oxo-3-(pyridin-4-yl)propan-2-ylamino)-1-oxopropan-2-ylamino)-3-(5-hydroxy-1H-indol-3-yl)-1-oxopropan-2-yl)butanamide]: the Ki is below 1 µM.
